The values that follow come from US20220411487A1.

In assay [1] the target is full-length mouse TMPRSS6 with a C-terminal triple myc tag on HEK293.hHJV cells (HEK293.hHJV/3xMyc.mTMPRSS6) (mouse) (UniProt Q9DBI0). In words: cell-based or functional assay.
Assay [2] has as its target full length human TMPRSS6 with a C-terminal triple myc tag on HEK293.hHJV cells (HEK293.hHJV/3xMyc.hTMPRSS6) (human) (UniProt Q8IU80). The experiment in a line: cell-based or functional assay.

For Aprotinin (from UniProt P00974 36-93), in assay [1], the Geometric Mean Fluorescence Intensity of cell surface hHJV amounted to 26700, the Inhibition (%) of soluble hHJV release (ELISA) is more than 99% and the Median Fluorescence Intensity of cell surface hHJV is 38100. Moreover, in assay [2], the Geometric Mean Fluorescence Intensity of cell surface hHJV stood at 42300, the Inhibition (%) of soluble hHJV release (ELISA) was more than 99% and the Median Fluorescence Intensity of cell surface hHJV came out at 58100.
